The assay addresses T1, ETA receptor (Sus scrofa, UniProt Q29010).
T1 construct: The plasma membrane of porcine lung (2 mg of protein); from tissue; host or cells: porcine lung plasma membrane
The assay can be described thus: Scatchard analysis of radioligand binding, ETA receptor. The conditions noted are these: porcine lung plasma membrane. The procedure:
The plasma membrane of porcine lung (2 mg of protein) is incubated at 37° C. for 1 hour with 30 pM [^125 I]ET-1 or 10 pM [^125 I]ET-3 in the absence or presence of various amounts of nonlabeled ligands in a total volume of 1 ml of 20 mM HEPES (pH 7.4), containing 145 mM NaCl, 5 mM KCl, 3 mM MgCl2, 1 mM EGTA 1 mg/ml bovine serum albumin, and 0.2 mg/ml bacitracin. After the incubation, unbound [^125 I]ETs were separated by centrifugation at 20,000×g for 20 min at 4° C. followed by aspiration of the supernatant. The radioactivity in the membrane pellet is measured in Wallac-1470 Wizard autogamma counter (Pharmacia). Nonspecific binding is defined as membrane-associated radioactivity in the presence of saturating concentrations of ETs (100 nM). Nonspecific binding is subtracted from the total binding and the difference is defined as specific binding. Total binding is always less than 15% of the total radioactivity added. The binding to the ETA receptor is determined with [^125 I]ET-1 in the presence of 1 nM nonlabeled ET-3 and the binding to the ETB receptor with [^125 I]ET-3 alone. […] From the inhibition curves for the binding of [^125 I]ETs, the apparant binding affinity constant (Ki) of one of the test compounds is calculated as a parameter of the affinity for the ETA and ETB receptors, as shown in the following table.

Protein sequences, listed by entry. Tags and fused reporters are not part of them. Residues count along the entry.
UniProt Q29010, 21-427: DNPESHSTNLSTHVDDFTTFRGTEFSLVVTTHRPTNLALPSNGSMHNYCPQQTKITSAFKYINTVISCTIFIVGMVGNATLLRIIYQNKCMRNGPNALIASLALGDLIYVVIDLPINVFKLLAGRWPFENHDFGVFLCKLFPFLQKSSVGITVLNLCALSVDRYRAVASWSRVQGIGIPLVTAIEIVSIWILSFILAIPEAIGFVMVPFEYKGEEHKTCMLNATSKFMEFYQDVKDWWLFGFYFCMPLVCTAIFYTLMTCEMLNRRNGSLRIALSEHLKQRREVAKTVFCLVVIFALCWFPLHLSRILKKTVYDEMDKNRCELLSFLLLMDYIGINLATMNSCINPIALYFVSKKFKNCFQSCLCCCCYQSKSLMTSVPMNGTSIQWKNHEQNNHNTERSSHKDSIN

Consider “[^125 I]ET-1: radiolabelled endothelin-1 purchased from Amersham International; ETs are vasoactive peptides with 21 amino acid residues”, for which, under “in the presence of 1 nM nonlabeled ET-3”, the “maximum binding sites (Bmax)” value is 342 fmol/mg protein. Also, for the setting “in the presence of 1 nM nonlabeled ET-3, read-out: apparant dissociation constant (Kd)”, the dissociation constant (Kd) – broadly, the concentration at which binding is half-saturated – amounted to 44 pM.

Source of the values: patent publication US5703106A, “Antagonists of endothelin receptors” (priority 1994, dated 1997).
